Measured values from publication PMC12155096 (International Journal of Molecular Sciences, 2025).

Key:
[1] = system: CYP1A2, 2C9, 2C19, 2D6, and 3A4; settings: known CYP inducers; CYP isoform not specified
[2] = system: CYP1A2, 2C9, 2C19, 2D6, and 3A4 (isoform not given); test: in vitro; settings: human

Row | Compound | activity outcome in CYP assays [1] | IC50 at 1 h [2] [nM]
1 | NC(=O)N1c2ccccc2C=Cc2ccccc21 [carbamazepine] | either inactive or inhibitors | 
2 | Clc1ccc(COC(Cn2ccnc2)c2ccc(Cl)cc2Cl)cc1 (centres unmarked) [econazole] |  | < 2000
3 | N#C/C(=C1/SC[C@@H](c2ccc(Cl)cc2Cl)S1)n1ccnc1 [luliconazole, reference compound] |  | < 2000
4 | CCC1(c2ccccc2)C(=O)NC(=O)NC1=O [phenobarbital] | either inactive or inhibitors | 
5 | O=C1NC(=O)C(c2ccccc2)(c2ccccc2)N1 [phenytoin] | either inactive or inhibitors | 
